# Antibody variant affinities, Ab-14 heavy chain, assay 1

The target is the same throughout: PDVDLGDISGINAS, from the HR2 region of SARS-CoV-2 spike.

Ab-14 is the parent antibody, in scFv form: VH, then the linker GGGGSGGGGSGGGGS, then VL. The light chain is unchanged in all variants.
VH: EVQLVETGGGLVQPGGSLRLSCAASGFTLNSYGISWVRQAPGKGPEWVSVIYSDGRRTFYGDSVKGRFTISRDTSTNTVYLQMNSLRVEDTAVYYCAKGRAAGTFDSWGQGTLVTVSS
VL: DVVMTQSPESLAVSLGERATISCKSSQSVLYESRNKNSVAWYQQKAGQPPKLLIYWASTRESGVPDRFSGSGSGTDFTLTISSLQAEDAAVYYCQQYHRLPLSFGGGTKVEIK

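The parent was found by panning a naive human phage display library on the peptide. The library (AAYL49) carries one to three amino acid substitutions per variant, with no insertions or deletions. The scFvs were displayed on barcoded MATa yeast, the peptide on MATalpha yeast. The frequency of each diploid, read from paired DNA barcodes, reflects how well the two displayed proteins bind. Each replicate has its own calibration line, from reference interactions of the BCL2 family. Mating was done three times.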

Variants are written as CDR1, CDR2 and CDR3 of the heavy chain (limits as in the source). Parent: GFTLNSYGIS, VIYSDGRRTFYGDSVK, GRAAGTFDS.
The read-out is the apparent dissociation constant on a log10 scale (nM): the lower, the stronger.
An entry "n.d." has no value in the source: the pair was not observed among the diploids in that replicate. This suggests poor binding but is not conclusive.

CDR-H1,CDR-H2,CDR-H3,"replicates, log10 nM",control signals
GYTLNSYGIS,VIYSDGRRTFSGDSVK,GRAAGTFDS,4.04 3.63 n.d.,2 of 9 (3.65)
GFTLNSPGIS,VMYSDGRRTFYSDSVK,GRAAGTFDS,n.d. n.d. n.d.,3 of 9 (3.38)
GFTQNSYGIS,VIYSDGRRTFYGCSVK,GHAAGTFDS,n.d. 4.18 n.d.,0 of 9
GSTLNSYGIS,VIYSDGRRTFYGDSVP,GRAAGTFDS,4.59 n.d. n.d.,2 of 9 (4.13)
GFDLNSYGES,VIYSDGRRTFYPDSVK,GRAAGTFDS,n.d. n.d. n.d.,1 of 9 (4.10)
GFTLNSYGIS,VIYSDGRRTDYGDSVL,GRAAGTFDS,n.d. n.d. n.d.,0 of 9
GFTLNSYGIA,VIYSDGMRTFYGDSVK,GEAAGTFDS,n.d. n.d. n.d.,0 of 9
GFTLNSYGIS,VIYSDGRRTFYGDSVD,ERAAGTFDQ,n.d. n.d. 3.95,3 of 9 (3.94)
GFTLNSYGIS,VIYSDGRQTFYGDDVT,GRAAGTFDS,4.22 5.57 4.24,2 of 9 (4.98)
GFTLNSYGIS,VIYYDGSRTRYGDSVK,GRAAGTFDS,2.93 2.40 2.61,0 of 9
GFTGNSYGIS,VIYYDGRRTFYGDSVK,GRAAGTHDS,n.d. n.d. n.d.,0 of 9
SFTLNSYGIS,VIYSDGRRTFYGDSVK,GRAAGTGDT,n.d. n.d. n.d.,1 of 9 (4.10)
GFTLNSYGIS,RIYSDGRRTFYGDSCK,GRAAGTFVS,n.d. n.d. n.d.,0 of 9
GFTLNSYGIS,VIYSDGDRWFYGDSIK,GRAAGTFDS,n.d. 3.32 n.d.,1 of 9 (4.15)
GFTLNSYGCS,HIYSDGWRTFYGDSVK,GRAAGTFDS,5.44 n.d. n.d.,1 of 9 (3.61)
GFTLNSYGIS,VIYSDGRRTFYGDSVK,GRPWGTFDN,5.62 2.86 4.66,4 of 9 (4.16)
GFTLNSYGIS,VIYSDGRRTFYGTCVK,GRAAGTFDS,3.18 2.91 3.72,3 of 9 (4.78)
GFTSNSYGIS,VIYSDGRRYFYGDSVK,GRAAGTFDE,n.d. n.d. n.d.,0 of 9
GFTLNSYGSS,VIYEDGRRTFYGDSVK,GRAAGNFDS,4.42 4.23 6.04,9 of 9 (4.58)
GFTSNSYGFS,VIYSDGRRTFYGQSVK,GRAAGTFDS,n.d. 5.13 n.d.,2 of 9 (3.46)
GFTLNSYGIS,VIYSDGRRTFKGDSVK,GRPAGTLDS,5.29 n.d. 6.52,6 of 9 (4.31)
GFTLNSYGIS,VIYSDGGRTFVGDSVK,GRAAGTFDS,n.d. n.d. n.d.,0 of 9
GFTLNSYGIS,VIYSMGRRWFYGDSVK,GRAAGSFDS,5.15 n.d. n.d.,1 of 9 (3.73)
GFTLNSYGIE,VIYLDGRRTFYGDSQK,GRAAGTFDS,5.01 4.64 4.09,6 of 9 (4.59)
GFTLNSYGIS,VIYSDGRRTFYGDSVK,GRHAWTFYS,n.d. n.d. 3.83,0 of 9
GFTVNSYYIS,VIYSDGRRTFYGDSVK,GRAAGTFDS,n.d. n.d. n.d.,0 of 9
GFTLNSYGIS,VIASWGRRTFYGDSVK,GRAAGGFDS,n.d. 4.78 n.d.,1 of 9 (4.29)
GFTLNSYGCS,VIYSDGRRTCYGDSVK,GRAAGTFIS,n.d. 3.36 4.01,0 of 9
GVTLNSYGIS,VIYFDGRRTFYGDSVK,GRAAGTFDS,4.24 3.09 3.47,0 of 9
MFTLNSYGIS,VIYSDDRRTFYGDSVR,GRAAGTFDS,n.d. n.d. 4.87,1 of 9 (3.41)
GFTLNSYGIS,VIYSDGRRPFYGDVVK,GRAAGTVDS,n.d. n.d. n.d.,1 of 9 (2.79)

The opening 2 entries, copied out:

| CDR-H1 | CDR-H2 | CDR-H3 | replicates, log10 nM | control signals |
|---|---|---|---|---|
| GYTLNSYGIS | VIYSDGRRTFSGDSVK | GRAAGTFDS | 4.04 3.63 n.d. | 2 of 9 (3.65) |
| GFTLNSPGIS | VMYSDGRRTFYSDSVK | GRAAGTFDS | n.d. n.d. n.d. | 3 of 9 (3.38) |

As a blank, each scFv also met three strains without target: over library AAYL49, 15% of these pairings were detected, typically at 4.06 and seldom below 2.83. For each scFv, signals with the empty controls are counted beside the result, with their mean in brackets.
For reference, the parent read 0.65 as the reference entry and 4.11 (one replicate of three) as a member of this library.

The measurements come from Engelhart et al. 2022 (doi:10.1038/s41597-022-01779-4) through the FLAb antibody collection.